Results reported in PMC8878114, “Lipophilicity and Pharmacokinetic Properties of New Anticancer Dipyridothiazine with 1,2,3-Triazole Substituents” (Molecules, 2022).

Columns and labels:
[1] = experimental lipophilicity by RP-TLC (RM0, b, logPTLC); format: physicochemical; conditions: extrapolation to 0% acetone, acetone/TRIS buffer pH 7.4
[2] = calibration standards; cited from earlier work

**Q.** Which “RM0 (relative lipophilicity parameter)” value [1] does the source give for `CC(=O)c1ccccc1` [B, acetophenone, reference compound] here?
**A.** The value was 1.501.

**Q.** And the “logPlit (row head of Table 6: logPTLC)” value [2]?
**A.** The value was 1.58 [32].
